Measurements as given in ChEMBL document CHEMBL1157909, “Targeting multiple chorismate-utilizing enzymes with a single inhibitor: validation of a three-stage design” (J Med Chem, 2010).

Experiments:
[1] = molecular target: T1, Anthranilate synthase component 1 (Salmonella typhimurium (strain LT2 / SGSC1412 / ATCC 700720)) (UniProt P00898); test: Competitive inhibition of Salmonella Typhimurium anthranilate synthase trpE expressed in Escherichia coli BL21(DE3) by double reciprocal plot in presence of cofactor Mg2+; conditions: Salmonella enterica subsp. enterica serovar Typhimurium
T1 sequence (whole entry): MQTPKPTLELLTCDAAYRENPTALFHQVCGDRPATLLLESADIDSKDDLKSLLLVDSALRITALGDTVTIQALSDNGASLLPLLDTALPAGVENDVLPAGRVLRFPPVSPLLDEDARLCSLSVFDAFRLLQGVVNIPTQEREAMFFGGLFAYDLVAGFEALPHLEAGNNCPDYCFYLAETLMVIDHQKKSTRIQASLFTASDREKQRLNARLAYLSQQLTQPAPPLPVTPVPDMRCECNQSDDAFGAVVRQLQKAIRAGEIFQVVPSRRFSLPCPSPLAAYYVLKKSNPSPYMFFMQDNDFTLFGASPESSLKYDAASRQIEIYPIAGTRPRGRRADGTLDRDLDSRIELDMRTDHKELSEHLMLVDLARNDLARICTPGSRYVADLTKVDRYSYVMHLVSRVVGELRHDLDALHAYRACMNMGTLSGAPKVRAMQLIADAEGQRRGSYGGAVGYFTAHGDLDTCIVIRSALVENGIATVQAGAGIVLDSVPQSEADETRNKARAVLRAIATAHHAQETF

[2] = molecular target: T1, Anthranilate synthase component 1 (Salmonella typhimurium (strain LT2 / SGSC1412 / ATCC 700720)); test: Noncompetitive inhibition of Salmonella Typhimurium anthranilate synthase trpE expressed in Escherichia coli BL21(DE3) using chorismate as substrate by double reciprocal plot; conditions: Salmonella enterica subsp. enterica serovar Typhimurium
Summary of the method: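 S. typhimurium anthranilate synthase partial complex (TrpE2TrpG2), 2.2 nM, in a fluorescence assay read at 390 nm emission, 313 nm excitation, 25 °C. Buffer: 100 mM phosphate pH 7.0, 20 mM L-glutamine, 5 mM MgCl2 (saturating). Reactions were started with enzyme. Inhibitor ranged 10 μM–8 mM; chorismate ranged 0.5–5 KM. Ki versus chorismate came from initial rates.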

Cc1ccc(C(=O)N[C@@H](CCCCN)C(=O)N[C@@H](Cc2cccc(Cl)c2)C(N)=O)c([N+](=O)[O-])c1O
Activity [1]: Active | Activity [2]: Active

Active and inactive are the calls of the source. The rule behind the calls is not given here.
